Data on one compound can be found in patent US20110124653A1, “ARYL-SULPHONAMIDIC DIMERS AS METALLOPROTEASES INHIBITORS” (BRACCO IMAGING S.P.A., priority 2008, published 2011).

Protein sequences, listed by entry. Tags and fused reporters are not part of them. Residues count along the entry.
UniProt P08253, 110-660 limits assumed: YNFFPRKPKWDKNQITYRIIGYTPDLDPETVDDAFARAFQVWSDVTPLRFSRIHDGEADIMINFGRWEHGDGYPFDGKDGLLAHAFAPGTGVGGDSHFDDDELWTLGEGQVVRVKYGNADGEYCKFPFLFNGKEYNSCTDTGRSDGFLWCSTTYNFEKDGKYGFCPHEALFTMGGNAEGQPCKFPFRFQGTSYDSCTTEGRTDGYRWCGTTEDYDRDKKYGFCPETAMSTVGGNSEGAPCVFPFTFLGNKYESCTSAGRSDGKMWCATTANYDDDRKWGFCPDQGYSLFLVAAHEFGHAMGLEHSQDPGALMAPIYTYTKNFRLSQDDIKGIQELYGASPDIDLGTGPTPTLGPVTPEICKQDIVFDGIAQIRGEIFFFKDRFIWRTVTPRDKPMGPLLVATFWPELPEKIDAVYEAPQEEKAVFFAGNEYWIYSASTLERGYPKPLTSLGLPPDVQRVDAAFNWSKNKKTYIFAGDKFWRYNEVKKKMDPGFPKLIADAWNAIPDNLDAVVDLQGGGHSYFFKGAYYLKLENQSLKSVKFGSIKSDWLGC

The target of one experiment is MMP-13 (Homo sapiens, UniProt P45452). In words: MMP inhibition assay, fluorogenic substrate FS-6. The settings on record: read-out: IC50 MMP-13; substrate FS-6 (Mca-Lys-Pro-Leu-Gly-Leu-Dpa-Ala-Arg-NH2), enzyme and inhibitor incubated 4 h at 25° C., triplicate. How it is done: (§1) As reported therein, the inhibitory activity of the compounds of the invention was evaluated on the known fluorogenic substrate (Mca-Lys-Pro-Leu-Gly-Leu-Dpa-Ala-Arg-NH2), shortly referred to as FS-6 (see, as a reference, U. Neumann, Analytical Biochem. 2004, 328, 166-173).
(§2) Recombinant human pro-MMP-2 was supplied by Prof. Gillian Murphy (Department of Oncology, University of Cambridge, UK), while pro-MMP-13 and pro-MMP-14 were purchased from Calbiochem. Proenzymes were activated immediately prior to use with p-aminophenylmercuric acetate (APMA: 2 mM for 1 h at 37° C. for pro-MMP-2 and 1 mM for 30 min at 37° C. for pro-MMP-13). […] After the addition of 200 μM solution of the fluorogenic substrate Mca-Lys-Pro-Leu-Gly-Leu-Dpa-Ala-Arg-NH2 (Bachem) (see, for a reference, Neumann, U.; Kubota, H.; Frei, K.; Ganu, V.; Leppert, D. Anal. Biochem. 2004, 328, 166) for all of the enzymes in DMSO (final concentration 2 μM), the hydrolysis was monitored every 15 sec. for 20 min recording the increase in fluorescence (λex=325 nm, λem=395 nm) using a Molecular Device SpectraMax Gemini XS plate reader.
(§3) The assays were performed in triplicate, in a total volume of 200 μl per well, in 96-well microtitre plates (Corning, black, NBS). […] Percent of inhibition was calculated from control reactions without the inhibitor. […] Results were analyzed using SoftMax Pro software and GraFit software.

Another experiment concerns the target MMP-2 (Homo sapiens, UniProt P08253). In words: MMP inhibition assay, fluorogenic substrate FS-6. Conditions: read-out: IC50 MMP-2; substrate FS-6 (Mca-Lys-Pro-Leu-Gly-Leu-Dpa-Ala-Arg-NH2), enzyme and inhibitor incubated 4 h at 25° C., triplicate. How it is done:
as §1, §2, §3

A further experiment concerns the target MMP-14 (Homo sapiens, UniProt P50281). The settings on record: read-out: IC50 MMP-14; isolated enzymes, substrate FS-1 (Mca-Pro-Leu-Gly-Leu-Dpa-Ala-Arg-NH2), prior art (Rossello et al.); cited from earlier work.

The term IC50 denotes the concentration at which inhibition is half-maximal. On to `CC(C)ON([C@H](CCNC(=O)CCCNC(=O)c1cccc(C(=O)NCCCC(=O)NCC[C@H](C(=O)NO)N(OC(C)C)S(=O)(=O)c2ccc(-c3ccccc3)cc2)c1)C(=O)NO)S(=O)(=O)c1ccc(-c2ccccc2)cc1`, for which the IC50 at MMP-13 is 0.0147 µM; at MMP-2 it was 0.0198 µM; on MMP-14 it was 0.034 µM.
